Measured values published in PubChem BioAssay AID652197 (Broad Institute, 2013).
Only a part is listed here, and it is no random draw. The source made the active and inactive calls.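 Rule for the calls: active = mean replicate inhibition of at least 30%, or all replicates individually reaching that 30% level; inactive = mean below 30% and not every replicate reaching it.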

Protein sequences, listed by entry. Tags and fused reporters are not part of them. Lines headed by an entry give the natural chain unless they say otherwise; changes in a name come on top.
UniProt Q9NZ08: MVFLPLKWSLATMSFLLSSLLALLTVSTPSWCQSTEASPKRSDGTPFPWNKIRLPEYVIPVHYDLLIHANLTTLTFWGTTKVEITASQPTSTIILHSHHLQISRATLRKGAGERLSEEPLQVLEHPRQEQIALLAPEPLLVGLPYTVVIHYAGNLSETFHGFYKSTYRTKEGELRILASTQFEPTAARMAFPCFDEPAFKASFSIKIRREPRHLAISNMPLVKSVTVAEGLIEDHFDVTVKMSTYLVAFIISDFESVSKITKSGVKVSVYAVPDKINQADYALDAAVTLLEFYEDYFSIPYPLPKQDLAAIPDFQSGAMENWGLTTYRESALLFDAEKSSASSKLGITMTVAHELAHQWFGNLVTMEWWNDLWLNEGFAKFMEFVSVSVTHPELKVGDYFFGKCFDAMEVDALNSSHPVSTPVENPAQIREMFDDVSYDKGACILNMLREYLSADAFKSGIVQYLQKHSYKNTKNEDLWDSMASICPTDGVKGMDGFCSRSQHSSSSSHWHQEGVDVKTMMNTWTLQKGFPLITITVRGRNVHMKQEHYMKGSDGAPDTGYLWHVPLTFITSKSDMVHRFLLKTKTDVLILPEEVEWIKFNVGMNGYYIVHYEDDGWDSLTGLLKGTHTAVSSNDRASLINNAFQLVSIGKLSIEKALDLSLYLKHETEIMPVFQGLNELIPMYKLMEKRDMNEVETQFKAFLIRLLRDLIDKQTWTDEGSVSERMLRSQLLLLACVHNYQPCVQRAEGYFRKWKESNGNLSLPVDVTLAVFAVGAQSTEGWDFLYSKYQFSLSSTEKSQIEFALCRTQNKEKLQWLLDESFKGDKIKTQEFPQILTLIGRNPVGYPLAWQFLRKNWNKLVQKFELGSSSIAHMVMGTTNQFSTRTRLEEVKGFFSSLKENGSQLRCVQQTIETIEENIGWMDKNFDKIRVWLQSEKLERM

Target: Endoplasmic reticulum aminopeptidase 1 (Homo sapiens) (UniProt Q9NZ08)
Experiment: human ERAP1 aminopeptidase inhibitors, primary screen, biochemical, single point, plate reader (AID 652197);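 note: 0% = neutral control wells and 100% = L-leucinethiol positive control wells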
Conditions: recombinant ERAP1, Leu-AMC fluorescence, 60 min; at 10.7 µM; hits give high values

Row | SMILES | inhibition
1 | O=c1ccc2ccc(O)cc2o1 | active: 100%
